{"sequences": {"note": "Sequences of proteins named here, by UniProt entry; tags and fusion partners are left off. A change or cut given only in a name is not applied to a line headed by its entry.", "UniProt Q96RJ0": "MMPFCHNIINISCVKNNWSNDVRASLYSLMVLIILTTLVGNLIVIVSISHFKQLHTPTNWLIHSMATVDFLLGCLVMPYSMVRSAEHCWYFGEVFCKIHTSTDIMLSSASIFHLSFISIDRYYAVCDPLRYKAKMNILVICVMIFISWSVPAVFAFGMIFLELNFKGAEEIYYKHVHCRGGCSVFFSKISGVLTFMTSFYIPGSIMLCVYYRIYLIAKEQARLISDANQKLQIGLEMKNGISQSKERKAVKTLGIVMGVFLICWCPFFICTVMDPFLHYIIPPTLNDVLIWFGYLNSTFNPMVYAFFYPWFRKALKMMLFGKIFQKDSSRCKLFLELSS"}, "source": "PubChem BioAssay AID651785", "about": "(The Scripps Research Institute Molecular Screening Center, 2012)", "note": "Only a part is listed here, and it is no random draw. The source made the active and inactive calls. No stated cut-off is given here; in the data, active means inhibition above about 49%; inactive means the rest."}
{"biological_target": "Trace amine-associated receptor 1 (Homo sapiens) (UniProt Q96RJ0)", "assay": "TAAR1 receptor blockers, repeat testing – cell-based, fluorescence, confirmation (AID 651785);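 further: CHO-Ga16 host cells challenged with agonist PEA near its EC80; 0% = agonist at EC80 plus vehicle and 100% = vehicle with no agonist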", "settings": "TAAR1-expressing cells, fluorescence antagonist read-out; at 3 µM; stronger effect = higher value"}
{"smiles": "Cc1ccccc1OP(=O)(Nc1ccccn1)Oc1ccccc1C", "inhibition": "inactive: 48.1%"}
